In patent US9944700B2, “Notch2 binding molecules for treating respiratory diseases” (NOVARTIS AG, priority 2013, dated 2018):

Test system: bronchospheres (human bronchial epithelial cells)
Test: Bronchosphere assay of secreted recombinant human proteins, qPCR of cell type markers and immunostaining
Format: cell-based
Protocol: Human bronchial epithelial (HBE) cells and culture media were obtained from Lonza. Air-liquid interface cultures using passage 2 (P2) cells were performed as previously described (Danahay, H. et al., American journal of physiology. Lung cellular and molecular physiology 282, L226-236 (2002)). For three-dimensional culturing of HBE cells, P1 cells were trypsinized and resuspended (30,000 cells/ml) in HBE differentiation media containing 5% growth factor-reduced Matrigel (BD Biosciences). 20 μl of suspension was plated in each well of a 384-well plate (Greiner) pre-coated with 10 μl of a 25% solution of Matrigel (BD Biosciences) in HBE differentiation media. Wells were fed or treated at day 2 and day 8 of culture by adding 30 μl of differentiation media containing the appropriate treatment. Three-dimensional cultures were analyzed at the time points indicated.
Immunofluorescence of HBEC bronchospheres was performed as described previously for MCF10A cysts (Debnath, J. et al., Methods 30, 256-268 (2003) with the following modifications. After incubation with fluorescence-conjugated secondary antibodies, DNA was stained with a 1:1 mix of PBS and ProLong gold antifade containing DAPI. Confocal microscopy was performed at room temperature on a microscope (Zeiss LSM510 Meta) using an EC Plan-Neofluar 10×/0.30 dry objective (Zeiss), an EC Plan-Neofluor 20×/0.5 dry objective (Zeiss), a C-Apochromat 40×/1.2 W corr (Zeiss), or a C-Apochromat 63×/1.2 W Corr objective (Zeiss). Images were collected with Zen confocal software (Zeiss). Scale bars were added, and images were processed using Zen (Zeiss) and Photoshop (Adobe). Air-liquid interface (ALI) cultures were processed for immunofluorescence analysis after 14 days of culture at ALI by rinsing the apical surface of each filter with PBS, and then fixing in 4% paraformaldehyde for 4 hours. Filters were washed with IF buffer (130 mM NaCl, 7 mM Na2HPO4, 3.5 mM NaH2PO4, 7.7 mM NaN3, 0.1% bovine serum albumin, 0.2% Triton X-100, 0.05% Tween-20), blocked with IF wash containing 10% goat serum, and stained with primary antibody in IF wash containing 10% goat serum overnight at 4° C. […] To quantify the total staining area of ALI cultures, 10×13 images were collected with a plan Neofluar 10×0.3 NA Ph1 objective (EC; Carl Zeiss, Inc.) on a microscope (Axiovert 200; Carl Zeiss, Inc.) equipped with a motorized stage and a camera (Orca-ER-1394; Hamamatsu Photonics) controlled by Axiovision software (Carl Zeiss, Inc.) and used to generate a single composite image using the MOSAIX function in Zeiss Axiovision. Quantification of the total staining area was performed with ImageJ. […] Cells positive for MUC5AC, MUC5B, or cilia (acetylated α-Tubulin) staining were counted manually. […]

## IFN-α-2: secreted, recombinant human protein profiled in the bronchosphere assay
55 proteins tested at 3.3, 10 and 30 ng/mL
  change in expression of at least one cell-type marker, initial screen: concentration-dependent change
Markers FOXJ1, DNAI2
  expression of both of the ciliated cell markers: attenuated
Markers MUC5AC, MUC5B, FOXA3
  expression of at least two of the goblet cell markers: enhanced
validation, expanded concentration range
  change in expression of at least one of the cell-type markers, on validation: robust change
